Protein sequences, listed by entry. Tags and fused reporters are not part of them.
UniProt P50613, whole entry: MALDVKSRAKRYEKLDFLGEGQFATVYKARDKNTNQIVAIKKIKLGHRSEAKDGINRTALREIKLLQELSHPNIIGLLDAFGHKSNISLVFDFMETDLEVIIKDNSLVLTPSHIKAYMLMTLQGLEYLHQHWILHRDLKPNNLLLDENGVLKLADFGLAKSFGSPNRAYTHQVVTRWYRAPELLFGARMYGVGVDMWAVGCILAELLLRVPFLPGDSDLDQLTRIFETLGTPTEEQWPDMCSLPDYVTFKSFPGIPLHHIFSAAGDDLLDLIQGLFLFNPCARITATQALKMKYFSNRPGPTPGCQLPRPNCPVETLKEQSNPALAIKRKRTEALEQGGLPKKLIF
UniProt P11802, whole entry: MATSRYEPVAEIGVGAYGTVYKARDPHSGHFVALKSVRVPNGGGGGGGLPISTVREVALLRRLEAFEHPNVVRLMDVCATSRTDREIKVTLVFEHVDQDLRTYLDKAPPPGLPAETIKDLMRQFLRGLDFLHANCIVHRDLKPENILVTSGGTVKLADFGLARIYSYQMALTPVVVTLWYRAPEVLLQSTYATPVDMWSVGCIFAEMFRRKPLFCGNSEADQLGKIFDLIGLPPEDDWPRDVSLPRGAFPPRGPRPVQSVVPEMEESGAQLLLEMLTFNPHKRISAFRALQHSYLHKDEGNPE
UniProt P06493, whole entry: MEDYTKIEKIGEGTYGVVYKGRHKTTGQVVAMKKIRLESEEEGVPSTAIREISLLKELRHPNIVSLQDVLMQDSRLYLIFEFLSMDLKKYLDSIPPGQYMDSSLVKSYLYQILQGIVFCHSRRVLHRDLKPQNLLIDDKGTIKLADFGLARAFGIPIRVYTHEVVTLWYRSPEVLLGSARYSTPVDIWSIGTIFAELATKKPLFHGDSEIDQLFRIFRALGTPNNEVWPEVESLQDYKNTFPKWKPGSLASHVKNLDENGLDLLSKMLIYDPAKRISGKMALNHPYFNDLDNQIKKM
UniProt Q00534, whole entry: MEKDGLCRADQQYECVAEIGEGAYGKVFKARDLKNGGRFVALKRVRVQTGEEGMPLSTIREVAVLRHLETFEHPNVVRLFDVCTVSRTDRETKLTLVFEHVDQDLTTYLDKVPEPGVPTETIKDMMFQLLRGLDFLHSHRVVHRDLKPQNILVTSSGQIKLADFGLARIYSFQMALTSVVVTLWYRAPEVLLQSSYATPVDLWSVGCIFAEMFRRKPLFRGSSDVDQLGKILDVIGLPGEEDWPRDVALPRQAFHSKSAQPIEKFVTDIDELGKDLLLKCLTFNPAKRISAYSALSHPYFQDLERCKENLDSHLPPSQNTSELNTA
UniProt P50750, whole entry: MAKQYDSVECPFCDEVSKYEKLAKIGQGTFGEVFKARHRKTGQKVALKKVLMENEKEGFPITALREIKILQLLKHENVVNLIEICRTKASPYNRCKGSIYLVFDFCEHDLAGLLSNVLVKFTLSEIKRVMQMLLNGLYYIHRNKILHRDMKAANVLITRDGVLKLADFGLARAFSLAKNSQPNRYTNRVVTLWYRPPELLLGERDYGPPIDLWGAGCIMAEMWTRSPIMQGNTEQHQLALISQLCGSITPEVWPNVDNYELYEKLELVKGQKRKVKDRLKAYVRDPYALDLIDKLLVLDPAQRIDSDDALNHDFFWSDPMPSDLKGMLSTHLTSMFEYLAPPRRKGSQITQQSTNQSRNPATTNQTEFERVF
UniProt P24385, whole entry partner: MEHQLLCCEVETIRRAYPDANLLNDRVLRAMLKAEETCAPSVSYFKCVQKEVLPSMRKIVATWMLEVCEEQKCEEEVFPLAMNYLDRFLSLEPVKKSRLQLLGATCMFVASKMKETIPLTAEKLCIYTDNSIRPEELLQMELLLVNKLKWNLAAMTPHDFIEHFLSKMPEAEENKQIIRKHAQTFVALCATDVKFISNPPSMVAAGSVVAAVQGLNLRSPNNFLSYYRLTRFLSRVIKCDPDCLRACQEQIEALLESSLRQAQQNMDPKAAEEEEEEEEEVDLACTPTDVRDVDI
UniProt P51946, whole entry partner: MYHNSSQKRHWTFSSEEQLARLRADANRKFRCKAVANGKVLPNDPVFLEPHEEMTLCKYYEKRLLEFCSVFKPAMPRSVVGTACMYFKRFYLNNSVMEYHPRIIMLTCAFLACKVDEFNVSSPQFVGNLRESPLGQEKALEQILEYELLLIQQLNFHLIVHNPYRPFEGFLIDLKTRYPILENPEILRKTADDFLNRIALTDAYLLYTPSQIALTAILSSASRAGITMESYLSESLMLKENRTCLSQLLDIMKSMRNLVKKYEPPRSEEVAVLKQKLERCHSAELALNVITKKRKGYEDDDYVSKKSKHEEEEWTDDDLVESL
UniProt P14635, whole entry partner: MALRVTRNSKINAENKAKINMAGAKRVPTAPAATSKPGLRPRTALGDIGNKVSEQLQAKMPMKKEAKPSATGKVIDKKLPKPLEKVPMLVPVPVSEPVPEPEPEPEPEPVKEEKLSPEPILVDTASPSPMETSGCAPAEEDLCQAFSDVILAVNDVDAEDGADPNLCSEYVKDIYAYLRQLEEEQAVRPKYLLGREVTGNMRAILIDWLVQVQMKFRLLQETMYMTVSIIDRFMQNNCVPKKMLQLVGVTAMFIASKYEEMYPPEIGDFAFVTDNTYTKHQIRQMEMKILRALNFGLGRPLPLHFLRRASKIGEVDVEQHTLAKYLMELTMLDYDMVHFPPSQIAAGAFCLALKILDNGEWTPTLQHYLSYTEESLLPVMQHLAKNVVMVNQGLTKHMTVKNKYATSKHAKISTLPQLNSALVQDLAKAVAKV
UniProt P51948, whole entry partner: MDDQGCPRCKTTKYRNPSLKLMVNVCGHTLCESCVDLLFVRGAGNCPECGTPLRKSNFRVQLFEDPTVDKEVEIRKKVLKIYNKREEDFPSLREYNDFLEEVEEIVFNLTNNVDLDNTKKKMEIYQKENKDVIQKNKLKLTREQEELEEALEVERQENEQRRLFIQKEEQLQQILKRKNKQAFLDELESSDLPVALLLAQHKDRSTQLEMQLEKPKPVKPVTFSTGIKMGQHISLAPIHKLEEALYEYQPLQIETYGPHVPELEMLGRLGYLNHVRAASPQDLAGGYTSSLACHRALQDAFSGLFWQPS
UniProt O60563, whole entry partner: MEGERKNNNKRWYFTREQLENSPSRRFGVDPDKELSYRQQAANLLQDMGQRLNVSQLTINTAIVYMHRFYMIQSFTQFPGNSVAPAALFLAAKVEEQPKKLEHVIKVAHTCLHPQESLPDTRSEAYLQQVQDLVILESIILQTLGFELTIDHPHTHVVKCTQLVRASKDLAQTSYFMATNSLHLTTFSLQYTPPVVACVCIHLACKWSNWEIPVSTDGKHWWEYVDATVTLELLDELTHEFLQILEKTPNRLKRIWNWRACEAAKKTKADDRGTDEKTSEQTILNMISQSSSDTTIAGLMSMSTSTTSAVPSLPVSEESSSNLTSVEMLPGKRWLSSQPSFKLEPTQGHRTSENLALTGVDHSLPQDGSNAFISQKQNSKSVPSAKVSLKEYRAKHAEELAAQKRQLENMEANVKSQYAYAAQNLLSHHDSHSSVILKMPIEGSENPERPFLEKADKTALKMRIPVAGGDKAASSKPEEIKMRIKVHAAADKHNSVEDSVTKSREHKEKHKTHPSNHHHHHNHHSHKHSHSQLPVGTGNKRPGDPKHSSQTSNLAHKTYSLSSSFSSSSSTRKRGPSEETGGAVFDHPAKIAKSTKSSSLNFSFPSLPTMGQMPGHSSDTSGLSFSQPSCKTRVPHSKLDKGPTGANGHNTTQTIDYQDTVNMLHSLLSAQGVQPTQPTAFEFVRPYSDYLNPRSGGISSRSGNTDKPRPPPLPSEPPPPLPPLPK

In patent US20230303564A1, “PYRIMIDINE RING COMPOUND” (MEDSHINE DISCOVERY INC., priority 2020, published 2023):

What was measured:
[1] = biological target: CDK7/CyclinH/MAT1 (Homo sapiens (Human), UniProt P50613); assay: CDK7/CyclinH/MAT1 enzyme activity test (ADP-Glo); type: biochemical; settings: read-out: CDK7/Cyclin H IC50, 10 μM ATP, 25° C. 120 minutes
[2] = biological target: CDK4/CyclinD1 (Homo sapiens (Human), UniProt P11802); assay: CDK4/CyclinD1 enzyme activity test (LANCE Ultra TR-FRET); settings: read-out: CDK4/Cyclin D1 IC50, 350 μM ATP, 25° C. 120 minutes
[3] = biological target: CDK1/CyclinB1 (Homo sapiens (Human), UniProt P06493); assay: CDK1/CyclinB1 enzyme activity test (ADP-Glo); settings: read-out: CDK1/Cyclin B IC50, 25 μM ATP, 25° C. 120 minutes
[4] = biological target: CDK2/CyclinE1 (Homo sapiens (Human), UniProt P24941); assay: CDK2/CyclinE1 enzyme activity test (ADP-Glo); settings: read-out: CDK2/Cyclin E1 IC50, 150 μM ATP, 25° C. 60 minutes
[5] = biological target: CDK6/CyclinD1 (Homo sapiens (Human), UniProt Q00534); assay: CDK6/CyclinD1 enzyme activity test (LANCE Ultra TR-FRET); settings: read-out: CDK6/Cyclin D1 IC50, 250 μM ATP, 25° C. 120 minutes
[6] = biological target: CDK9/CyclinT1 (Homo sapiens (Human), UniProt P50750); assay: CDK9/CyclinT1 enzyme activity test (ADP-Glo); settings: read-out: CDK 9/Cyclin T1 IC50, 100 μM ATP, 25° C. 120 minutes
[7] = biological target: CDK2/CyclinA2 (Homo sapiens (Human), UniProt P24941); assay: CDK2/CyclinA2 enzyme activity test (ADP-Glo); settings: read-out: CDK2/Cyclin A2 IC50, 50 μM ATP, 25° C. 60 minutes

SMILES | IC50 [1] | IC50 [2] | IC50 [3] | IC50 [4] | IC50 [5] | IC50 [6] | IC50 [7]
CS(=O)(=O)N1CCC(Nc2ncc3ccnc(C4CCCC4O)c3n2)CC1 (stereo not shown) | 227 nM | 73.7 nM | 12.7 nM | 6.58 nM | 28.3 nM | 303 nM | 1.4 nM
C[C@@H]1CN(S(C)(=O)=O)CC[C@@H]1Nc1ncc2cc(C(F)F)nc(NC3CCCC3(F)F)c2n1 (single isomer, unassigned) |  | 19.4 nM |  | 3.6 nM | 10.8 nM |  | 
